Consider 2 molecules from US20230338060A1, “Device and Method for Treating Osteonecrosis” (Texas Scottish Rite Hospital for Children, priority 2017, published 2023).

The conditions of series [1]: 4 mg BMP2 per hip; cited from earlier work.
For series [2] the following is noted: 1 mg BMP2 per hip, saline as carrier; cited from earlier work.
The test system of series [3] is pig bone marrow mesenchymal cells. Nature of the series: Osteogenic bioactivity of released BMP2 (qPCR, Alizarin red). The format is cell-based. The protocol:
(FIG. 2A) The graph showing the cumulative release profile of BMP2 from GHT hydrogel (0.75 mg BMP2 per ml of hydrogel); (FIG. 2B) The bar graph showing the total amount of detected BMP2 from the GHT hydrogel; (FIG. 2C) The bar graph showing the relative gene expression by pig bone marrow mesenchymal cells (pBMSCs) cultured for 5 days in growth medium (GM), osteogenic medium (OM), OM supplemented with BMP2 (40 ng/ml), or OM supplemented with released BMP2 (40 ng/ml) from the hydrogel (BMP2-R); (FIG. 2D) Alizarin Red staining of the pBMSCs that were cultured for 11 days in GM, OM, OM+BMP2 (40 ng/ml), and OM+BMP2-R (40 ng/ml). * represents p<0.05, when comparing with GM group; # represents p<0.05, when comparing with OM group.
In order to test the bioactivity of the released BMP2 (BMP2-R), osteogenic assays were performed using pig bone marrow mesenchymal cells (pBMMC). The cells were cultured for five days.
On the technique in general: Quantitative PCR measures a nucleic acid by following its amplification.

For “BMP2: recombinant human bone morphogenetic protein 2, from INFUSE Bone Graft (Medtronic)”, in series [1], the “occurrence of HO” value is given as 8/66. In addition, the “incidence of HO” value in series [2] is recorded as 4/6.

B1: BMP2-R: BMP2 released from the GHT hydrogel (protein, UniProt P12643 283-396, looked up)
Bone morphogenetic protein 2: QAKHKQRKRLKSSCKRHPLYVDFSDVGWNDWIVAPPGYHAFYCHGECPFPLADHLNSTNHAIVQTLVNSVNSKIPKACCVPTELSAISMLYLDENEKVVLKNYQDMVVEGCGCR
modifications: released from GHT hydrogel
Regarding B1, the “osteogenesis of pBMMC, BMP2-R vs BMP2 groups” value in series [3] (40 ng/ml) was “No significant differences”. Also, the “gene expression for Col 1, ALP and OSX” value in series [3] (40 ng/ml in OM, 5 days, compared to OM and GM (p<0.0001)) is listed as “upregulation”. Besides, the “minerals, Alizarin red staining” value in series [3] (40 ng/ml in OM, eleven days, vs OM group) is recorded as “increased minerals”.
